# Values of other authors, collected in publication PMC5831161, “Crystal structure correlations with the intrinsic thermodynamics of human carbonic anhydrase inhibitor binding” (PeerJ, 2018).
# Chains of the proteins cited; added tags and fusions are not shown. Lines headed by an entry give the natural chain unless they say otherwise; changes in a name come on top. Residues count along the entry.
# UniProt O43570, 30-291 limits assumed: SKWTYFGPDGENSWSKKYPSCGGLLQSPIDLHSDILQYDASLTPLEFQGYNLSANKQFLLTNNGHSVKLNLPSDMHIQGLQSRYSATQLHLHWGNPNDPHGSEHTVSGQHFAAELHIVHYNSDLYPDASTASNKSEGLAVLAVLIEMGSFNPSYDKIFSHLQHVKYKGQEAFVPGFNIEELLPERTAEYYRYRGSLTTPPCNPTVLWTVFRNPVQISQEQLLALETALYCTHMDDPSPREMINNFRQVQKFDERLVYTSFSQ
# UniProt Q8N1Q1: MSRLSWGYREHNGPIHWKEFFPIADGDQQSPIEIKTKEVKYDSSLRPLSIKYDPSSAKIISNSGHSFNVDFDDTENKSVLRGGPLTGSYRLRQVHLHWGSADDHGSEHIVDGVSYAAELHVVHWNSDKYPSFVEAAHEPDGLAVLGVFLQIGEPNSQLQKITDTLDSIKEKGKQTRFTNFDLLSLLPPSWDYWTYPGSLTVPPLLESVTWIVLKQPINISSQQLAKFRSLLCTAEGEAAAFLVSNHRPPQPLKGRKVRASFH
# Key:
# [1] = molecular target: T1, CA XII (Homo sapiens, UniProt O43570); parameters: made in house; details: intrinsic Gibbs energy of binding, ref Kišonaitė et al. (2014), Zubrienė et al. (2015), Zubrienė et al. (2016); cited from earlier work
# [2] = molecular target: T1, CA XII; parameters: made in house; details: ref Kišonaitė et al. (2014), Zubrienė et al. (2015), Zubrienė et al. (2016), cited from earlier work
# [3] = molecular target: T2, CA XIII (Homo sapiens, UniProt Q8N1Q1); parameters: made in house; details: intrinsic Gibbs energy of binding, ref Kišonaitė et al. (2014), Zubrienė et al. (2015), Zubrienė et al. (2016); cited from earlier work
# [4] = molecular target: T2, CA XIII; details: ref Kišonaitė et al. (2014), Zubrienė et al. (2015), Zubrienė et al. (2016), cited from earlier work
smiles,measurement,setting,value
NS(=O)(=O)c1c(F)c(F)c(S(=O)(=O)CCO)c(F)c1F [Compound 10],ΔG,[1],-44.3 kJ/mol
same,ΔH,[2]; intrinsic enthalpy of binding,-24.6 kJ/mol
same,−TΔS,[2]; intrinsic entropy term,-19.7 kJ/mol
same,ΔG,[3],-47.8 kJ/mol
same,ΔH,[4]; intrinsic enthalpy of binding,-50.4 kJ/mol
same,−TΔS,[4]; intrinsic entropy term,2.7 kJ/mol
